Literature values, collected in article PMC7442691 (Nature chemical biology, 2020).

Amino acid sequences for entries named in this document (tags omitted).
UniProt Q13526, whole entry: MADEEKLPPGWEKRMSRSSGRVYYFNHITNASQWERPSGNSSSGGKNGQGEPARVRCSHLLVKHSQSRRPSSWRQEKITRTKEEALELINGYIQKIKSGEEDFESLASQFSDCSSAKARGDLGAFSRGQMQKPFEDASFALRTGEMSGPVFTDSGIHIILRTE

Target: Pin1 (Homo sapiens, UniProt Q13526)
Conditions: cited from earlier work

Substance: Ac-Phe-D-pThr-Pip-Nal-Gln-NH2 [D-PEPTIDE]
- Ki: 20 nM
